This passage reports Kd results from paper PMC3725620 (Breast cancer research and treatment, 2011).

Sequences of proteins named here, by UniProt entry; tags and fusion partners are left off. A change or cut given only in a name is not applied to a line headed by its entry.
UniProt P43116: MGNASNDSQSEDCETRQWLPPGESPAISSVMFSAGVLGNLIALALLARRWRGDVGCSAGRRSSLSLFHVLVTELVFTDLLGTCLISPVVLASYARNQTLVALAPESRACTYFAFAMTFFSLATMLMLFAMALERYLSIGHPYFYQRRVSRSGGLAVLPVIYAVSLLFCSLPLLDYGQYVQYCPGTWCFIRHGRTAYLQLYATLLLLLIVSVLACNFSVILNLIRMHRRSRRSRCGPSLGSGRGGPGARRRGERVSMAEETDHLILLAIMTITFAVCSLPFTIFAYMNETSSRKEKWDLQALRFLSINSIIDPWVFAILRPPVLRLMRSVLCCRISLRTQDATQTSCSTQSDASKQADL

This assay addresses prostaglandin E receptor EP2 (Homo sapiens, UniProt P43116). The assay can be described thus: 3H-PGE2 radioligand binding, recombinant HEK-293-EP2 cells. Type of assay: cell-based.

In the case of `CCCCC[C@H](O)/C=C/[C@H]1[C@H](O)CC(=O)[C@@H]1C/C=C\CCCC(=O)O` [PGE2], the Kd (usually a measure of binding affinity in units of concentration) is 3.1 nM.
